# According to patent EP4603105A1, “PHARMACEUTICAL COMPOSITION CONTAINING CYCLIC COMPOUND HAVING SELECTIVE KRAS INHIBITORY EFFECT AGAINST HRAS AND NRAS” (CHUGAI SEIYAKU KABUSHIKI KAISHA, priority 2022, dated 2024):
# Sequences of proteins named here, by UniProt entry; tags and fusion partners are left off.
# UniProt P01112, whole entry: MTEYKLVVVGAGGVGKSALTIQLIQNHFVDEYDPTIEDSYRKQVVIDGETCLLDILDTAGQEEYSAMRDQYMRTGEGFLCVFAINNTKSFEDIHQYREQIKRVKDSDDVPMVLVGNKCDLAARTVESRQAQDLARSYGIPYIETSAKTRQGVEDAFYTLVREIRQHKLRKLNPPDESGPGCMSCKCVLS
# Molecular target: HRAS wild-type protein (Homo sapiens, UniProt P01112)
# Assay: Binding to HRAS by surface plasmon resonance (SPR), KD and KD ratio to KRAS
# Conditions: ratio of KD for HRAS wild-type protein to KD for KRAS
row,SMILES,HRAS /KRAS
1,CCOC[C@H]1C(=O)N[C@@H]([C@@H](C)CC)C(=O)N(C)CC(=O)N(C)[C@H]2C/C=C\CCN(C2=O)[C@@H](Cc2ccc(C)cc2)C(=O)N(C)CC(=O)N[C@@H](CCc2cc(F)c(C(F)(F)F)c(F)c2)C(=O)N2C[C@@H](C)C[C@H]2C(=O)NC2(CC(C)(C)C2)C(=O)N(C)[C@@H](C2CCCC2)C(=O)N(C)[C@H](C(=O)N(C)CC)CC(=O)N1C,A (a compound having 10 or more and less than 20 is denoted as A)
2,CCO[C@@H]1C[C@H]2C(=O)NC3(CC(C)(C)C3)C(=O)N(C)[C@@H](C(CC)CC)C(=O)N(C)[C@H](C(=O)N(C)C)CC(=O)N(C)[C@@H](COC)C(=O)N[C@@H]([C@@H](C)CC)C(=O)N(C)CC(=O)N(C)[C@H]3C/C=C\CCN(C3=O)[C@@H](CC3CCCCC3)C(=O)N(C)CC(=O)N[C@@H](CCc3cc(F)c(C(F)(F)F)c(F)c3)C(=O)N2C1,A (a compound having 10 or more and less than 20 is denoted as A)
3,CC[C@H](C)[C@@H]1NC(=O)[C@H](COC)N(C)C(=O)C[C@@H](C(=O)N(CC)CC)N(C)C(=O)[C@H](C2CCCC2)N(C)C(=O)C2(CC(C)(C)C2)NC(=O)[C@@H]2C[C@H](C)CN2C(=O)[C@H](CCc2ccc(C(F)(F)F)c(Cl)c2)NC(=O)CN(C)C(=O)[C@H](Cc2ccc(C)cc2)N2CC/C=C\C[C@@H](C2=O)N(C)C(=O)CN(C)C1=O,A (a compound having 10 or more and less than 20 is denoted as A)
4,CCCO[C@H](C)[C@@H]1NC(=O)[C@H](CC(C)C)N(C)C(=O)C[C@@H](C(=O)N(C)CC)N(C)C(=O)[C@H](C2CCCC2)N(C)C(=O)C2(CC(C)(C)C2)NC(=O)[C@@H]2C[C@H](C)CN2C(=O)[C@H](CCc2cc(F)c(C(F)(F)F)c(F)c2)NC(=O)CN(C)C(=O)[C@H](Cc2ccc(C)cc2)N2CC/C=C\C[C@@H](C2=O)N(C)C(=O)CN(C)C1=O,A (a compound having 10 or more and less than 20 is denoted as A)

# Same assay, conditions: ratio of KD with respect to HRAS wild-type protein to KD with respect to KRAS
row,SMILES,HRAS /KRAS
1,CCO[C@@H]1C[C@H]2C(=O)NC3(CCC3)C(=O)N(C)[C@@H](C(CC)CC)C(=O)N(C)[C@H](C(=O)N(C)C)CC(=O)N(C)[C@@H](CC3CC3)C(=O)N[C@@H]([C@@H](C)CC)C(=O)N(C)CC(=O)N(C)[C@H]3C/C=C\CCN(C3=O)[C@@H](Cc3ccc(C(F)(F)F)cc3)C(=O)N(C)CC(=O)N[C@@H](CCc3cc(F)c(Cl)c(F)c3)C(=O)N2C1,A (a compound having 10 or more and less than 20 is denoted as A)
2,CCO[C@@H]1C[C@H]2C(=O)NC3(CCC3)C(=O)N(C)[C@@H](C3CCCC3)C(=O)N(C)[C@H](C(=O)N3CCCC3)CC(=O)N(C)[C@@H](CC3CC3)C(=O)N[C@@H]([C@@H](C)CC)C(=O)N(C)CC(=O)N(C)[C@H]3C/C=C\CCN(C3=O)[C@@H](Cc3ccc(C)cc3)C(=O)N(C)CC(=O)N[C@@H](CCc3cc(F)c(C(F)(F)F)c(F)c3)C(=O)N2C1,A (a compound having 10 or more and less than 20 is denoted as A)
3,CCCC[C@H]1C(=O)N[C@@H]([C@@H](C)CC)C(=O)N(C)CC(=O)N(C)[C@H]2C/C=C\CCN(C2=O)[C@@H](Cc2ccc(C(F)(F)F)cc2)C(=O)N(C)CC(=O)N[C@@H](CCc2cc(F)c(C(F)(F)F)c(F)c2)C(=O)N2C[C@H](OCC)C[C@H]2C(=O)NC2(CCC2)C(=O)N(C)[C@@H](C2CCCC2)C(=O)N(C)[C@H](C(=O)N(C)C)CC(=O)N1C,A (a compound having 10 or more and less than 20 is denoted as A)
4,CC[C@H](C)[C@@H]1NC(=O)[C@H](CC)N(C)C(=O)C[C@@H](C(=O)N(C)C)N(C)C(=O)[C@H](C2CCCC2)N(C)C(=O)C2(CCC2)NC(=O)[C@@H]2C[C@@H](F)CN2C(=O)[C@H](CCc2cc(F)c(C(F)(F)F)c(F)c2)NC(=O)CN(C)C(=O)[C@H](Cc2ccc(C(F)(F)F)cc2)N2CC/C=C\C[C@@H](C2=O)N(C)C(=O)CN(C)C1=O,B (a compound having 3 or more and less than 10 is denoted as B)
